This is an account of results in paper PMC9871955, “High-throughput screening of SARS-CoV-2 main and papain-like protease inhibitors” (Protein & Cell, 2022).

The test concerns the target SARS-CoV-2 M^pro (Severe acute respiratory syndrome coronavirus 2, UniProt P0DTD1). Description: biochemical. In kind it is biochemical.

The term IC50 denotes the concentration at which inhibition is half-maximal. Take `COc1ccc(-n2c(S)nnc2CNC(=O)c2cc(OC)c(OC)c(OC)c2)cc1` [JK0109-C011]: the half-inhibitory concentration (IC50) (IC50 (μM) at S/KM 2) came to 17.8 ± 3.25 µM.
Same read-out and setting: as for `COc1ccc(-n2c(CNC(=O)COc3ccc(Cl)cc3Cl)n[nH]c2=S)cc1` [JK0109-B011], the figure is 3.37 ± 0.84 µM.
Regarding `O=C(NCc1n[nH]c(=S)n1-c1ccc(Br)cc1)c1ccc(Cl)cc1Cl` [JK0108-D008], the IC50 (IC50 (μM) at S/KM 1/2) was 1.7 ± 0.93 µM.
